# Target: mMC4R (Mus musculus, UniProt P56450)
# Chains of the proteins cited; added tags and fusions are not shown.
# UniProt P56450, whole entry: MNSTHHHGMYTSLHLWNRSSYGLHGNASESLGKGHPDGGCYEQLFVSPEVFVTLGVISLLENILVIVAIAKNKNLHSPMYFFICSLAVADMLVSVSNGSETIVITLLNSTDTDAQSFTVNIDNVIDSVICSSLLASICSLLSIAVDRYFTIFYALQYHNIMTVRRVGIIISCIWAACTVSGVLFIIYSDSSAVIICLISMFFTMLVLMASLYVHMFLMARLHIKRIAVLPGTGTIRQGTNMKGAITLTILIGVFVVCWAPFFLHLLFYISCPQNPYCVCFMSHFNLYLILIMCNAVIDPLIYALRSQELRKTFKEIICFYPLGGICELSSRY
# Conditions: Example 1; antagonist, Schild analysis with NDP-MSH; ± SEM; <5.0 = no antagonist potency up to 10,000 nM
structure (smiles),measurement,value
"CC(C)[C@@H]1NC(=O)[C@H](CN)NC(=O)[C@H](Cc2ccccc2)NC(=O)[C@H](Cc2ccccc2)NC(=O)[C@H](CCCNC(=N)N)NC(=O)[C@@H]2CCCN2C(=O)[C@H]2CCCN2C(=O)[C@H](Cc2ccccc2)NC1=O [ZMK 2-85, c[Pro-Arg-Phe-Phe-Dap-Val-Phe-DPro]]",mMC4R pA2,7.5 ± 0.1
